Where two headings read alike, the source gives them in different places. Some results are limits rather than exact numbers.

From patent publication US20230113944A1, “COMPOSITIONS AND METHODS FOR THE TREATMENT OF NEURODEGENERATIVE DISEASES” (priority 2020, published 2023) come the findings set out here.

In this assay the target is T1, human nSMase2 (Homo sapiens, UniProt Q9NY59).
T1 construct: expressed in transfected cells; host or cells: HEK293T
T1 sequence (Q9NY59 1-655): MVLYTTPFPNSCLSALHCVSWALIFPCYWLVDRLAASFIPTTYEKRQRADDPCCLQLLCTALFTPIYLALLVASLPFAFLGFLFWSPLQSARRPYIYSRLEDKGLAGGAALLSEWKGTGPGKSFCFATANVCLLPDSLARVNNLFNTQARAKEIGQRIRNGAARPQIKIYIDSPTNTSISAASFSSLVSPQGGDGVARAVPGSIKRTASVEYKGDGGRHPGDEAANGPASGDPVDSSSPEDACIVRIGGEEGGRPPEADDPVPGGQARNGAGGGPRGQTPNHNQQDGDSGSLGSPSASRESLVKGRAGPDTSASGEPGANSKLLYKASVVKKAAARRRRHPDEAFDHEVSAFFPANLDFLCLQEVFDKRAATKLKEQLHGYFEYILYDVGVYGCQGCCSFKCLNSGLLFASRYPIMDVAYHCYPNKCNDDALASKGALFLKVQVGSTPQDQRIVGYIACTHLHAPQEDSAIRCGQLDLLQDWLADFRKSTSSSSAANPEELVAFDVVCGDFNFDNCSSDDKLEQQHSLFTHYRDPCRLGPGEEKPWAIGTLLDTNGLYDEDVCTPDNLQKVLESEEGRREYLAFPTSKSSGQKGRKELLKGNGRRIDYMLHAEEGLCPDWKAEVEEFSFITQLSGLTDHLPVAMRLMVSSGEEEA
The assay can be described thus: biochemical. Here is the method: To evaluate nSMase2 inhibitory activity of tested compounds, cell lysates from HEK293T cells over-expressing human nSMase2 were used as the source of the nSMase2 enzyme. The Amplex Red Sphingomyelinase activity assay was performed according to previously a described protocol^1. Confluent cells were washed with PBS and harvested with lysis buffer [100 mM Tris-HCl pH 7.5, 100 mM sucrose, 100 μM PMSF, 1× protease inhibitor cocktail] using a cell scraper, and then sonicated 3 times on ice for 10 sec and centrifuged at 10,000×g for 10 min at 4° C. to remove remaining cell debris. An initial screening of a compound library was performed using 50 μM compound concentrations. In secondary testing, selected compounds were analyzed at multiple compound concentrations and plotted as a percentage of DMSO control; dose-response curves were generated to determine IC50s using GraphPad Prism software (GraphPad Software, La Jolla Calif.). […] Activity of the enzyme in the presence of the different concentrations of the inhibitors was plotted against substrate concentration and the maximal rate of the enzymatic reaction (Vmax) and Michaelis constant were calculated using GraphPad Prism.

For `CCN(C)C(=O)Oc1ccc2c(c1)[C@]1(C)CCO[C@@H]1N2C` [Compound 16], the IC50 (IC50 nSMase2, Table 2, unit not in table, μM) is more than 5 µM.

Compound `CCN(C)C(=O)Oc1ccc2c(c1)[C@]1(C)CCO[C@@H]1N2C` [drawing 65] displayed an IC50 of 1 to 10 µM.

What is called IC50 is the concentration at which inhibition is half-maximal.
